Target: MAO-A (Homo sapiens, UniProt P21397)
Experiment: Enzyme kinetics and mechanism study (Lineweaver-Burk), MAO-A
Format: biochemical
Parameters: purchased BD Biosciences (Bedford, MA, USA)
Details: kinetics and dialysis

Chains of the proteins cited; added tags and fusions are not shown.
UniProt P21397, whole entry: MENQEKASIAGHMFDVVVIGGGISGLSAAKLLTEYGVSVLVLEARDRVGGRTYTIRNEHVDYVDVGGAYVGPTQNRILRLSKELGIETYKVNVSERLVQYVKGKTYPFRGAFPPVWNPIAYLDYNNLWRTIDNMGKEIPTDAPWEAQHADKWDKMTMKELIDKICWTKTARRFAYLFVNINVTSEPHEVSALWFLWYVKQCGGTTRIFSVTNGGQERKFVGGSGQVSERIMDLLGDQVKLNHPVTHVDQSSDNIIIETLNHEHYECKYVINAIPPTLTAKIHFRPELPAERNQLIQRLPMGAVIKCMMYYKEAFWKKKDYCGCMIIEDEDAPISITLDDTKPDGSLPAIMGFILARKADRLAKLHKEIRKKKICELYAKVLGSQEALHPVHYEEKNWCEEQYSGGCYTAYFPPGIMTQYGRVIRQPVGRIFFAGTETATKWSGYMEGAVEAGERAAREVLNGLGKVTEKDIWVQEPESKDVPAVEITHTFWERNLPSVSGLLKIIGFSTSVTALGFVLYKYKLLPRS

## C#CCN(C)CCCOc1ccc(Cl)cc1Cl [Clorgyline, reference compound]
  Type of Inhibition, Monoamine Oxidase-A: Mixed/Irreversible

Source: article PMC7697615, “Selective Interactions of O-Methylated Flavonoid Natural Products with Human Monoamine Oxidase-A and -B” (Molecules, 2020)
